The text below walks through data of ChEMBL document CHEMBL4393661, “PRODRUGS FOR NITROREDUCTASE BASED CANCER THERAPY- 2: Novel amide/Ntr combinations targeting PC3 cancer cells” (Eur J Med Chem, 2019).

Sequences of proteins named here, by UniProt entry; tags and fusion partners are left off. Residues count along the entry.
UniProt Q4A0P1, 1-208: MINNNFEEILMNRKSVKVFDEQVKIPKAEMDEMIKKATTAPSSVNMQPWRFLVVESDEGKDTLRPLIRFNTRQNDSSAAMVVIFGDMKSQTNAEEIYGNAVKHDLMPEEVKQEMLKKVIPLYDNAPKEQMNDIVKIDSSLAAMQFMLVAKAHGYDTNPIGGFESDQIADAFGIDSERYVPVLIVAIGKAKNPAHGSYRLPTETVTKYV

Series [1] addresses T1, Putative nitroreductase (Staphylococcus saprophyticus subsp. saprophyticus (strain ATCC 15305 / DSM20229 / NCIMB 8711 / NCTC 7292 / S-41), UniProt Q4A0P1). Description: Substrate activity at Staphylococcus saprophyticus nitroreductase expressed in Escherichia coli assessed as retention time […] at 100 uM by HPLC analysis (0 to 5 mins at 20 % ACN, 15 to 22 min at 80% ACN, 27-32 AT 20% ACN).

Series [2] has as its target T1, Putative nitroreductase. Description: Substrate activity at Staphylococcus saprophyticus nitroreductase expressed in Escherichia coli assessed as half life […] at 100 uM by HPLC analysis (0 to 5 mins at 20 % ACN, 15 to 22 min at 80% ACN, 27-32 AT 20% ACN).
Series [3] has as its system PC-3. Description: Cytotoxicity in human PC3 cells assessed as reduction in cell viability at 180 nM measured after 48 hrs by SRB assay. Type of series: cell-based. The note with it: pc-3, 48 h, 0.18 µM. (In general: Sulforhodamine B stains cellular protein and so reports cell mass.)
The test system of series [4] is PC-3. Description: Cytotoxicity against human PC3 cells assessed as reduction in cell viability measured after 48 hrs in presence of Staphylococcus saprophyticus nitroreductase and NADH by SRB assay. Type of series: cell-based.
The test system of series [5] is Hep 3B2. The experiment in a line: Cytotoxicity against human Hep3B cells assessed as cell viability at 9 to 150 uM measured after 48 hrs by MTT assay relative to control. Format: cell-based. The note with it: hep 3b2, 48 h. For orientation: Formazan colour is commonly taken as a measure of viable cells.
The next series concerns HUVEC. Description: Cytotoxicity against human HUVEC cells assessed as cell viability at 9 to 150 uM measured after 48 hrs by MTT assay relative to control. Type of series: cell-based.
In series [6] the test system is PC-3. Description: Cytotoxicity against human PC3 cells assessed as cell viability at 9 to 150 uM measured after 48 hrs by MTT assay relative to control. Format: cell-based. The note with it: pc-3, 48 h.
Series [7] concerns the target T1, Putative nitroreductase. The experiment in a line: Substrate activity at Staphylococcus saprophyticus nitroreductase expressed in Escherichia coli assessed as retention time in the presence of NADPH at 100 uM by HPLC analysis (0 to 5 mins at 20% ACN, 25 to 35 min at 80% ACN, 40 to 45 min at 20% ACN).
Series [8] deals with T1, Putative nitroreductase. The experiment in a line: Substrate activity at Staphylococcus saprophyticus nitroreductase expressed in Escherichia coli assessed as half life […] at 100 uM by HPLC analysis (0 to 5 mins at 20% ACN, 25 to 35 min at 80% ACN, 40 to 45 min at 20% ACN).
Series [9] has as its system Hep 3B2. Description: Cytotoxicity against human Hep3B cells assessed as reduction in cell viability measured after 48 hrs by MTT assay. Type of series: cell-based.
The target in series [10] is T1, Putative nitroreductase. Description: Substrate activity at Staphylococcus saprophyticus nitroreductase expressed in Escherichia coli assessed as retention time […] at 111 uM by HPLC analysis (0 to 5 mins at 20 % ACN, 15 to 22 min at 80% ACN, 27-32 AT 20% ACN).
The target of series [11] is T1, Putative nitroreductase. Description: Substrate activity at Staphylococcus saprophyticus nitroreductase expressed in Escherichia coli assessed as half life in the presence of NADPH at 111 uM by HPLC analysis (0 to 5 mins at 20 % ACN, 15 to 22 min at 80% ACN, 27-32 AT 20% ACN).
For series [12], the target named is T1, Putative nitroreductase. Description: Substrate activity at Staphylococcus saprophyticus nitroreductase expressed in Escherichia coli assessed as retention time in the presence of NADPH at 111 uM by HPLC analysis (0 to 5 mins at 20% ACN, 25 to 35 min at 80% ACN, 40 to 45 min at 20% ACN).
Series [13] deals with T1, Putative nitroreductase. Description: Substrate activity at Staphylococcus saprophyticus nitroreductase expressed in Escherichia coli assessed as half life in the presence of NADPH at 111 uM by HPLC analysis (0 to 5 mins at 20% ACN, 25 to 35 min at 80% ACN, 40 to 45 min at 20% ACN).

Molecules are shown by their SMILES. A value given as a limit tells only on which side of the number the result lay.

Take `CN(C)c1c([N+](=O)[O-])cc(C(=O)Nc2ccc([N+](=O)[O-])cc2)cc1[N+](=O)[O-]`: at Putative nitroreductase [1], the Retention time turned out to be 18.4 min. Further, at Putative nitroreductase [2], the t1/2 was less than 18 min. For the same compound, the Activity result in the series on PC-3 [3] is “Non-Toxic”; in the series with Hep 3B2 [5], greater than 80%; in the series on HUVEC, greater than 80%; in the series with PC-3 [6], greater than 80%. Moreover, the IC50 in the series on PC-3 [4] was 29.1 µM.

In the case of `Cc1c([N+](=O)[O-])cc(C(=O)Nc2ccc([N+](=O)[O-])cc2)cc1[N+](=O)[O-]`, the Retention time on Putative nitroreductase [1] was 18 min; on Putative nitroreductase [7], 23.9 min. For the same compound, the t1/2 on Putative nitroreductase [2] is less than 22.8 min; at Putative nitroreductase [8] it was less than 15.6 min. Besides, the Activity entry in the series with PC-3 [3] is “Non-Toxic”; with Hep 3B2 [5], greater than 80%; in the series with HUVEC, greater than 80%; in the series with PC-3 [6], greater than 80%. For the same compound, the IC50 with PC-3 [4] came out at 17.1 µM.

Consider `CN(C)c1c([N+](=O)[O-])cc(C(=O)Nc2ccc([N+](=O)[O-])cc2[N+](=O)[O-])cc1[N+](=O)[O-]`, for which the Retention time turned out to be 18.5 min at Putative nitroreductase [1] and 24.9 min on Putative nitroreductase [7]. The values for the t1/2 at Putative nitroreductase [2] and on Putative nitroreductase [8] were less than 25.2 min and less than 6 min, respectively. Besides, the IC50 with Hep 3B2 [9] stood at 43.7 µM. Moreover, the Activity in the series with Hep 3B2 [5] was less than 50%; in the series on HUVEC, greater than 80%; in the series on PC-3 [6] it was greater than 80%.

In the case of `Cc1c([N+](=O)[O-])cc(C(=O)Nc2ccc([N+](=O)[O-])cc2[N+](=O)[O-])cc1[N+](=O)[O-]`, the Activity with Hep 3B2 [5] was 51 to 80%; in the series with HUVEC, greater than 80%; with PC-3 [6], greater than 80%. In addition, the values for the Retention time on Putative nitroreductase [10] and on Putative nitroreductase [12] were 18.1 min and 24.1 min, respectively. Besides, the values for the t1/2 at Putative nitroreductase [11] and on Putative nitroreductase [13] were less than 13.8 min and less than 10.8 min, respectively.

For `O=C(Nc1ccc([N+](=O)[O-])cc1[N+](=O)[O-])c1cc([N+](=O)[O-])cc([N+](=O)[O-])c1`, the IC50 in the series on Hep 3B2 [9] turned out to be 51.2 µM. The Activity is less than 50% with Hep 3B2 [5], 51 to 80% with HUVEC and greater than 80% in the series with PC-3 [6]. For the same compound, the Retention time at Putative nitroreductase [10] came out at 14.5 min. Also, the t1/2 on Putative nitroreductase [11] was less than 22.2 min.

For orientation: IC50 means the concentration needed to halve the response being measured.
